Antibody variant affinities, Ab-14 heavy chain, assay B

Reference: Li et al. 2023, doi:10.1038/s41467-023-39022-2. File: FLAb, binding data.

The target is the same throughout: PDVDLGDISGINAS, from the HR2 region of SARS-CoV-2 spike.

The variants keep the light chain, the linker and the frameworks of Ab-14 (scFv order VH, three GGGGS repeats, VL).
VH: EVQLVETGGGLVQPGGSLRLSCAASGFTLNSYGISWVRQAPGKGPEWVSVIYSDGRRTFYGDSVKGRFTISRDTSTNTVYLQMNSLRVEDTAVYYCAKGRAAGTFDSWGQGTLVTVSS
VL: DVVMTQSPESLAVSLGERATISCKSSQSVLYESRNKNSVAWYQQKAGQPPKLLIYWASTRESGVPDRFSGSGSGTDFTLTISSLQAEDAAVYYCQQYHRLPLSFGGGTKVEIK

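The starting antibody came from a phage panning campaign against this peptide. The variants were designed computationally from a first round of random CDR variants and then made and measured. Their group label is 14H_En_Gen (En: ensemble of fine-tuned language models; Gen: genetic algorithm). The assay is AlphaSeq: two haploid yeast populations carry antibody and antigen on their surface. Binding brings cells together so that they mate, and sequencing counts the barcode pairs among the diploids. Scores were corrected for input abundance and mapped to Kd with protein pairs of known affinity run in the same pool. The assay was run in six technical replicates.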

Each variant is given by its three heavy chain CDRs, as the data file delimits them; those of the parent are GFTLNSYGIS, VIYSDGRRTFYGDSVK, GRAAGTFDS.
Numbers give log10(Kd / nM), so 0 is 1 nM and 3 is 1 µM. Smaller is tighter.
Where no diploid with the target was found in that replicate, the entry reads "nd": below detection, most likely a poor binder, though not proof of it.
Nonspecific signal, from three strains lacking the peptide, appeared in 1% of pairings of all heavy chain designs, centred on 2.08 (5% of these signals below 0.84); values are not corrected for it. The control count says in how many pairings with the empty strains this scFv gave a signal, with their mean in brackets.

| CDR-H1 | CDR-H2 | CDR-H3 | log10 Kd (nM) by replicate | signal with controls |
|---|---|---|---|---|
| GFDLEEYGIS | VIYADGMRTAYSDSVK | GEVAGTFDV | 0.05 0.12 -0.14 -0.33 0.08 -0.11 | 1/18 (3.08) |
| GFDLEDYGIS | VIYADGRRTAYADSVK | GENAGTFDV | -0.02 0.13 0.22 -0.14 0.70 0.25 | 0/18 |
| GFDLNEYGIS | VIYADGQRTAYADSVK | GKNAGTFDV | -0.88 -0.72 -1.05 -0.44 -0.70 -0.61 | 0/18 |
| GFDLDEYGIS | VIYADGKRTAYADDVK | GNVAGTFDV | 0.17 -0.33 -0.83 -0.49 -0.33 -0.78 | 0/18 |
| GFDLNEYGIS | VIYADGTRTAYADSVK | GNVAGTFDV | -0.48 -0.60 0.54 -0.47 -0.13 -0.33 | 0/18 |
| GFDLEEYGIS | VIYADGMRTAYADSVK | GNEAGTFDV | -0.01 -0.25 0.10 -0.48 -0.27 -0.36 | 0/18 |
| GFDLNEYGIS | VIYADGMRTAYADNVK | GEVAGTFDQ | 0.14 -0.52 -0.31 -0.34 0.13 -0.04 | 0/18 |
| GFDLEEYGIS | VIYADGKRTAYADSVK | GNVAGTFDT | -0.14 -0.46 -0.38 -0.38 -0.96 -0.18 | 0/18 |
| GFDLDEYGIS | VIYADGMRQAYADSVK | GENAGTFDV | 0.46 -0.52 -0.38 -0.56 -0.74 -0.20 | 0/18 |
| GFDLNEYGIS | VIYADGKRTAYVDDVK | GNNAGTFDV | 0.36 1.08 nd 0.37 -0.05 0.05 | 0/18 |
| GFDLDEYGIS | VIYADGSRTAYSDSVK | GENAGTFDL | -0.03 0.71 -0.21 1.50 0.53 -0.18 | 0/18 |
| GFDLNEYGIS | VIYADGQRTYYADSVK | GNVAGTFDL | -1.00 -1.86 -1.06 -1.74 -1.55 -1.73 | 0/18 |
| GFDLNEYGIS | VIYADGKRTAYADSVK | GSNAGTFDI | 0.47 0.18 0.55 -0.90 -0.23 0.32 | 0/18 |
| GFDLDEYGIS | VIYADGRRTAYADSVK | GNVAGTFDL | -1.12 -0.61 -0.82 -1.16 -0.92 -0.64 | 0/18 |
| GFDLNEYGIS | VIYADGMRTAYVDDVK | GNVAGTFDV | -0.39 -1.34 -0.77 -0.87 -0.99 -0.76 | 0/18 |
| GFDLDEYGIS | VIYADGKRTAYADSVK | GNVAGTFDA | 0.27 0.03 1.80 0.17 0.34 1.45 | 0/18 |
| GFDLNEYGIS | VIYADGKRTFYSDSVK | GENAGTFDV | -0.47 -0.46 -0.73 -1.05 -1.05 -0.66 | 0/18 |
| GFDLNEYGIS | VIYADGTRTAYADSVK | GNVAGTFDM | 0.13 -0.22 0.00 -0.29 0.23 -0.58 | 0/18 |
| GFDLNEYGIS | VIYADGMRTYYADSVK | GETAGTFDL | -0.55 -0.48 -0.75 -0.85 -0.64 -0.47 | 0/18 |
| GFDLNEYGIS | VIYADGRRTAYSDSVK | GNNAGTFDI | 0.00 0.23 -0.32 -0.58 -0.21 0.09 | 0/18 |
| GFDLNEYGIS | VIYADGVRTAYSDSVK | GNVAGTFDT | 0.28 0.34 -0.01 -0.03 -0.02 0.05 | 0/18 |
| GFDLNEYGIS | VIYADGSRTAYTDSVK | GNVAGTFDQ | -0.45 -0.65 -0.74 -0.68 -0.52 -0.42 | 0/18 |
| GFDLNEYGIS | VIYADGVRTAYSDSVK | GNQAGTFDM | -0.58 -0.52 -0.39 -0.39 -0.41 -0.47 | 0/18 |
| GFDLDEYGIS | VIYADGMRTAYADNVK | GEVAGTFDM | 0.58 -0.62 0.16 -0.28 0.27 0.36 | 0/18 |
| GFDLNEYGIS | VIYADGIRTAYADSVK | GGNAGTFDV | -0.56 -0.39 -0.55 -0.25 -0.57 -0.42 | 0/18 |
| GFDLNEYGIS | VIYADGMRTAYIDSVK | GNQAGTFDM | -0.37 -0.46 -0.26 -0.44 -0.37 -0.16 | 0/18 |
| GFDLDEYGIS | VIYADGRRTAYADSVK | GETAGTFDT | -0.06 -0.50 -0.04 -0.56 -0.81 -0.23 | 1/18 (1.90) |
| GFDLNEYGIS | VIYADGMRTYYADDVK | GNVAGTFDV | -0.08 -0.12 -0.44 -0.33 -0.29 -0.14 | 0/18 |
| GFDLNEYGIS | VIYADGVRTSYADSVK | GNNAGTFDM | 1.68 0.49 0.66 1.51 0.32 1.96 | 0/18 |
| GFDLDEYGIS | VIYADGRRTFYADSVK | GNVAGTFDV | 0.36 0.61 -0.01 -0.20 0.14 0.63 | 0/18 |

A sequence measured in both rounds can read differently, since the two assays cover different ranges.
The authors' rule: three or more of the six replicates give a measured affinity, fewer mean a poor binder.
Of ten entries with the parent sequence, four were seen in most replicates (averages 0.34 to 2.37), three in one and three in none, so single entries are noisy.